Test results as given in article PMC2009897, “Comparison of mutagenesis and malignant transformation by dihydrodiols from benz[a]anthracene and 7,12-dimethylbenz[a]anthracene” (British Journal of Cancer, 1979).

What was measured:
M2 mouse fibroblasts [1] = conditions: ref Marquardt et al., cited from earlier work
[2] = test system: V79 Chinese hamster cells; conditions: ref Marquardt et al., 1977b; cited from earlier work
M2 mouse fibroblasts [3] = assay: Plating efficiency of M2 mouse fibroblasts; format: cell-based; conditions: 24 h
M2 mouse fibroblasts [4] = assay: Malignant transformation in M2 mouse fibroblasts; conditions: 24 h
[5] = test system: V79 Chinese hamster cells; assay: Cytotoxicity (plating efficiency) in V79 Chinese hamster cells; format: cell-based; conditions: 3 h
[6] = 0.2 µg/ml, Table II (control for BA experiments)
[7] = 0.4 µg/ml, Table I (control for DMBA experiments)
[8] = 0.4 µg/ml, Table II (control for BA experiments)

7,8-dihydrodiol-9,10-epoxide of benzo[a]pyrene
Induction of transformations in M2 cells, anti versus syn isomer (M2 mouse fibroblasts [1]; 1977a): more active

8,9-dihydrodiol of 7-methylbenz[a]anthracene
Activity in M2 cells (malignant transformation), earlier observations (M2 mouse fibroblasts [1]; 1976): active
Activity in V79 cells [2]: active

N-Methyl-N'-nitro-N-nitrosoguanidine
Plating efficiency (%) in M2 cells (M2 mouse fibroblasts [3]; [6]): 32%
Plating efficiency (%) in M2 cells (M2 mouse fibroblasts [3]; [7]): 21%
Plating efficiency (%) in M2 cells (M2 mouse fibroblasts [3]; [8]): 26%
Transformed foci/103 survivors (M2 mouse fibroblasts [4]; [6]): 3.0 foci/103 survivors
Transformed foci/dishes treated (M2 mouse fibroblasts [4]; [6]): 23/24
Transformed foci/103 survivors (M2 mouse fibroblasts [4]; [7]): 5.3 foci/103 survivors
Transformed foci/dishes treated (M2 mouse fibroblasts [4]; [7]): 10/9
Transformed foci/dishes treated (M2 mouse fibroblasts [4]; [8]): 25/19
Plating efficiency (%) in V79 cells [5, 6]: 74%
Plating efficiency (%) in V79 cells [5, 7]: 31%
Plating efficiency (%) in V79 cells [5, 8]: 56%
